Test results taken from patent US20060188501A1, “Diagnostic and therapeutic agents for rheumatoid arthritis” (Kyowa Hakko Kogyo Co., Ltd., priority 2000, published 2006).

Tested on: Synoviocytes derived from a rheumatoid arthritis patient
Experiment: Growth of synoviocytes measured by MTT assay
Format: cell-based, human
Details: Herceptin 0.01, 0.1 and 1 μg/ml, 7 days culture, FIG. 3
Method: Synoviocytes were prepared from the diseased part of a rheumatoid arthritis patient according to the method described in Biochem. Biophys. Res. Com., 210, 1066-75 (1995). That is, synoviocytes obtained from a rheumatoid arthritis patient by surgery were minced, followed by enzyme treatment in RPMI1640 medium containing collagenase (4 mg/ml) at 37° C. for 4 hours to loosen the cells. The obtained cells were cultured in a growth medium (RPMI1640 containing 10% fetal calf serum) in a humidified CO2 incubator (5% CO2), with replacement of the growth medium at intervals of 3 to 4 days. […]
Participation of c-erbB-2 expressed in synoviocytes in the growth of synoviocytes was clarified by inhibition of phosphorylation of c-erbB-2 in the following manner. The growth of synoviocytes was measured by the assay using MTT [3,(4,5-dimethylthiazol-2-yl)2,5-diphenyl-tetrazolium bromide] […]
Synoviocytes derived from a rheumatoid arthritis patient which were prepared in the same manner as in Example 1 were seeded on a 96-well microplate in an amount of 5×10^3 cells/well and precultured in the growth medium at 37° C. overnight. […] Then, 100 μl of dimethyl sulfoxide was added to dissolve the fomazan complex and the absorbance at the wavelength of 590 nm was measured with 96-well multiscanner Immno-Mini (Japan Inter Med) as the degree of cell growth. […]

Substance: Herceptin: anti-c-erbB-2 monoclonal antibody (Genentech Inc.) considered to specifically inhibit the activation of c-erbB-2
- growth of synoviocytes (absorbance at 590 nm, MTT): inhibited in a manner dependent on the Herceptin concentration
